The text below walks through data of PMC4652220, “Imaging and energetics of single SSB-ssDNA molecules reveal intramolecular condensation and insight into RecOR function” (eLife, 2015).

For the experiment, the target named is T1, RecO (UniProt P0A7H3 1-242).
T1 construct: RecO recombination mediator protein; source: purified as previously described (Kantake et al., 2002)
T1 sequence (looked up): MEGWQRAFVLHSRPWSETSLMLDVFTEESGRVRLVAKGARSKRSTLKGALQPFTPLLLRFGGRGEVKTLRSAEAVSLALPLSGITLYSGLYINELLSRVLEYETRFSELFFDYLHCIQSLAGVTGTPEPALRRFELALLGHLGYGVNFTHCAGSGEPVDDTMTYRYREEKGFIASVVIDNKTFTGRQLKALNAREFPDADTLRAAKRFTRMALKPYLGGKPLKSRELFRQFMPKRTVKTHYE
Briefly: magnetic tweezers force spectroscopy; single tethered ssDNA; added in turn: 100 mM NaOAc and 1 mM Mg(OAc)2, 200 nM SSB, 100 nM RecO, 1 μM RecR; 20 mM TrisOAc pH 8.0, 50 mM DTT; 25°C. The following applies: both partners purified.

B1: Escherichia coli single-stranded DNA binding protein (SSB), wild-type, unmodified (natural protein, E. coli, UniProt P0AGE0 1-178, looked up)
chain: MASRGVNKVILVGNLGQDPEVRYMPNGGAVANITLATSESWRDKATGEMKEQTEWHRVVLFGKLAEVASEYLRKGSQVYIEGQLRTRKWTDQSGQDRYTTEVVVNVGGTMQMLGGRQGGGAPAGGNIGGGQPQGGWGQPQQPQGGNQFSGGAQSRPQQSAPAAPSNEPPMDFDDDIPF
notes: also called wild type SSB; unlabeled SSB
As to B1, the binding result was “binds”.
